From patent US20120172298A1, “GLP-1 AND FGF21 COMBINATIONS FOR TREATMENT OF DIABETES TYPE 2” (Novo Nordisk A/S, priority 2009, published 2012)

Assays:
human GLP-1 receptor [1] = molecular target: T1, human GLP-1 receptor (Homo sapiens, UniProt P43220); assay: GLP-1 activity assay, stimulation of cAMP formation (AlphaScreen, membranes of BHK467-12A cells); assay type: biochemical; set-up: expressed in transfected cells; host or cells: BHK467-12A (tk-ts13), stably transfected; purified plasma membranes; conditions: G2, G3: times higher, SEQ ID NO: 4: times that of G1
Method: The following assay may be used to determine the activity (potency) of GLP-1 compounds. In brief, the ability of GLP-1 compounds to stimulate formation of cyclic AMP (cAMP) in a medium containing the human GLP-1 receptor is measured. In principle, purified plasma membranes from a stable transfected cell line, BHK467-12A (tk-ts13), expressing the human GLP-1 receptor are stimulated with the GLP-1 compound in question, and the potency of cAMP production is measured using the AlphaScreen™ cAMP Assay Kit from Perkin Elmer Life Sciences. The cells are grown at 5% CO2 in DMEM, 5% FCS, 1% Pen/Strep (Penicillin/Streptomycin) and 0.5 mg/ml of the selection marker G418. Cells at approximate 80% confluence are washed 2× with PBS (Phosphate Buffered Saline) and harvested with Versene (aqueous solution of the tetrasodium salt of ethylenediaminetetraacetic acid), centrifuged 5 min at 1000 rpm and the supernatant removed. The additional steps are all made on ice. […] Suspension in Buffer 2, homogenization and centrifugation is repeated once and the membranes are resuspended in Buffer 2 and ready for further analysis or stored at −80° C. […] Formed cAMP is counted and measured at an AlphaFusion Microplate Analyzer. The EC50 values are calculated, e.g. using the Graph-Pad Prism software (version 5).

human GLP-1 receptor [2] = molecular target: T1, human GLP-1 receptor; assay: cell-based or functional assay

EC50 value relative to that of compound G1 (human GLP-1 receptor [1]) | Substance | EC50 of cAMP formation (AlphaScreen cAMP assay), relative to that of compound G1 (times the EC50 of compound G1) (human GLP-1 receptor [2])
about 5 times | N-epsilon37-[2-(2-{2-[2-(2-{2-[(S)-4-Carboxy-4-({trans-4-[(19-carboxynonadecanoylamino)methyl]-cyclohexanecarbonyl}amino)butyrylamino]ethoxy}ethoxy)acetylamino]ethoxy}ethoxy)acetyl][Des-aminoHis7,Glu22,Arg26,Arg34,Lys37]GLP-1-(7-37) [compound G2] | –
– | exendin-4(7-45) (the compound of SEQ ID NO: 4) (peptide) | 0.3
